The list shows a part of the results, in another mix than the full data. Some salts and complexes are drawn in separate pieces, as the source files them; their charges need not balance. Calls of active or inactive are those of the source. Rule as the data show it: active = inhibition above about 4.5%; inactive = the rest.
Test system: Methionine sulfoxide reductase A (Bos taurus)
Assay: inhibition of methionine sulfoxide reductase A – biochemical, absorbance, bovine, HTS, primary screen (AID 651718);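 also: 0% = vehicle wells with enzyme and 100% = reference inhibitor wells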
Details: purified bovine MsrA, absorbance read-out; at 15.5 µM; stronger effect = higher value

| SMILES | inhibition |
| --- | --- |
| O=[N+]([O-])c1cc([N+](=O)[O-])c(Nc2cccnc2)c([N+](=O)[O-])c1 | inactive: 3.89% |
| O=[N+]([O-])c1ccc2c(c1)C=Nc1ccccc1O2 | inactive: 0.46% |
| CC(C)(C)c1ccc(OP(C)(=O)Nc2ccc(SC(F)(F)F)cc2)cc1 (centres undefined) | inactive: 1.6% |
| Cc1cccc(C)c1OP(C)(N)=O (centres undefined) | inactive: 0.67% |
| COc1ccccc1OP(C)(=O)Nc1ccc(C)cc1 (centres undefined) | inactive: 0.16% |
| Cc1ccc(NP(C)(=O)Oc2ccccc2)c(C)c1 (centres undefined) | inactive: -0.21% |
| CCOC(=O)c1ccc(NP(C)(=O)Oc2ccccc2)cc1 (centres undefined) | inactive: 0.76% |
| Cc1cc(C)cc(OP(C)(N)=O)c1 (centres undefined) | inactive: 0.88% |
| COc1ccccc1OP(C)(=O)Nc1cc(Cl)ccc1C (centres undefined) | inactive: -0.04% |
| COc1ccc(OP(C)(=O)Nc2cccc(F)c2)cc1 (centres undefined) | inactive: -0.63% |
| CCN(CC)CCCOC(=O)C(O)(c1ccccc1)c1ccccc1 | inactive: -0.37% |
| COc1ccccc1-c1ccccn1.O=[N+]([O-])c1cc([N+](=O)[O-])c(O)c([N+](=O)[O-])c1 | inactive: 2.95% |
| CP(=O)(Nc1ccc(SC(F)(F)F)cc1)Oc1ccc(Cl)cc1 (centres undefined) | inactive: 0.84% |
| Cc1cccc(C)c1OP(C)(=O)Nc1ccc(SC(F)(F)F)cc1 (centres undefined) | inactive: 0.84% |
| CP(=O)(Oc1ccccc1)OC(c1ccccc1)C(F)(F)F (centres undefined) | inactive: -0.4% |
| CCc1ccc(OP(C)(=O)N2CCN(c3ccc([N+](=O)[O-])cc3)CC2)cc1 (centres undefined) | inactive: 2.56% |
| CP(=O)(NC(=O)Nc1ccccc1)Oc1ccccc1 (centres undefined) | inactive: -0.59% |
| Cc1cc(C)cc(OP(C)(=O)Nc2ccc(SC(F)(F)F)cc2)c1 (centres undefined) | inactive: 1.39% |
| O=[N+]([O-])c1cc([N+](=O)[O-])c(O)c([N+](=O)[O-])c1.c1ccc(Oc2ccncc2)cc1 | inactive: 3.99% |
| CCOC(=O)c1ccc(NP(C)(=O)Oc2ccc(OC)cc2)cc1 (centres undefined) | inactive: -1.02% |
| CCOP(C)(=S)SCC(=O)NC(C)C(=O)O (centres undefined) | inactive: -0.75% |
| CP(=O)(Nc1ccccn1)Oc1ccc(Cl)cc1 (centres undefined) | inactive: 0.91% |
| CP(=S)(Nn1cnnc1)Oc1ccccc1 (centres undefined) | inactive: -1.51% |
| CP(=O)(Nc1ccccc1Br)Oc1ccccc1 (centres undefined) | inactive: 0.5% |
| COc1ccccc1OP(C)(=O)Nc1ccccc1 (centres undefined) | inactive: -0.51% |

| SMILES | inhibition |
| --- | --- |
| O=[N+]([O-])c1cc([N+](=O)[O-])c(Nc2nnnn2CCO)c([N+](=O)[O-])c1 | inactive: 0.39% |
| CCOC(=O)C(CC)C1=NC(C)(C)Cc2ccccc21.O=[N+]([O-])c1cc([N+](=O)[O-])c(O)c([N+](=O)[O-])c1 (centres undefined) | inactive: 2.66% |
| CN1CCCCC1COC(=O)C1(O)c2ccccc2CCc2ccccc21 (centres undefined) | inactive: 0.44% |
| COc1ccccc1OP(C)(=O)Nc1c(C)cccc1C (centres undefined) | inactive: -0.74% |
| COc1ccc(-c2ccccn2)cc1.O=[N+]([O-])c1cc([N+](=O)[O-])c(O)c([N+](=O)[O-])c1 | inactive: 3.05% |
| CP(=O)(Nc1ccc(SC(F)(F)F)cc1)Oc1ccccc1 (centres undefined) | inactive: -0.75% |
| CCCOc1ccc(NP(C)(=O)Oc2ccc(Cl)cc2)cc1 (centres undefined) | inactive: 0.47% |
| O=[N+]([O-])c1cc([N+](=O)[O-])c(-n2nnc3ccccc32)c([N+](=O)[O-])c1 | inactive: 3.8% |
| CN(Cc1cccnc1)C(=O)COc1ccc(Cl)c(Cl)c1.O=[N+]([O-])c1cc([N+](=O)[O-])c(O)c([N+](=O)[O-])c1 | active: 4.98% |
| O=[N+]([O-])c1cc([N+](=O)[O-])c(-c2cnn(-c3ccccc3)c2)c([N+](=O)[O-])c1 | inactive: 2.04% |
| Cc1nc2ccc3ccccc3c2s1.O=[N+]([O-])c1cc([N+](=O)[O-])c(O)c([N+](=O)[O-])c1 | active: 6.83% |
| COc1ccccc1OP(C)(=O)Nc1cccc(Br)c1 (centres undefined) | inactive: 0.97% |
| CCOC(=O)c1ccc(NP(C)(=O)Oc2cc(C)cc(C)c2)cc1 (centres undefined) | inactive: -0.36% |
| Cc1cc(C)cc(OP(C)(=O)Nc2ccc(C)cc2C)c1 (centres undefined) | inactive: 0.08% |
| Cc1ccc(C)c(NP(C)(=O)Oc2ccccc2)c1 (centres undefined) | inactive: 0.56% |
| CP(=O)(Nc1cccc(Br)c1)Oc1ccccc1 (centres undefined) | inactive: 0.09% |
| Cc1cc(C)cc(OP(C)(=O)Nc2ccccn2)c1 (centres undefined) | inactive: -0.62% |
| O=C(O)c1cccc(Nc2c([N+](=O)[O-])cc([N+](=O)[O-])cc2[N+](=O)[O-])c1 | inactive: 3.11% |
| CC1=NCCc2c1[nH]c1ccccc21.O=[N+]([O-])c1cc([N+](=O)[O-])c(O)c([N+](=O)[O-])c1 | inactive: 3.16% |
| CCN(CC)CCCNc1ccccc1[N+](=O)[O-].O=[N+]([O-])c1cc([N+](=O)[O-])c(O)c([N+](=O)[O-])c1 | inactive: 2.04% |
| CCOC(=O)c1ccc(NP(C)(=O)Oc2ccc(F)cc2)cc1 (centres undefined) | inactive: 1.57% |
| COc1ccc(OP(C)(=O)Nc2ccc(SC(F)(F)F)cc2)cc1 (centres undefined) | inactive: -0.26% |
| Cc1c([N+](=O)[O-])cc([N+](=O)[O-])c(Br)c1[N+](=O)[O-] | inactive: 3.67% |
| CCN(CC)CCCOC(=O)C(O)(c1ccccc1)C1CCCCC1 (centres undefined) | inactive: -0.13% |
| CP(=O)(Nc1ccccc1)Oc1ccc(F)cc1 (centres undefined) | inactive: -1.03% |

| SMILES | inhibition |
| --- | --- |
| O=[N+]([O-])c1cc([N+](=O)[O-])c(OC2CCCCC2O)c([N+](=O)[O-])c1 (centres undefined) | active: 4.86% |
| CCCCCOc1ccc(NP(C)(=O)Oc2ccc(Cl)cc2Cl)cc1 (centres undefined) | inactive: 0.84% |
| O=[N+]([O-])c1cc([N+](=O)[O-])c(Nc2ccc(Cl)cc2)c([N+](=O)[O-])c1 | inactive: 1.14% |
| CP(=O)(Nc1ccccc1F)Oc1ccccc1 (centres undefined) | inactive: 0.86% |
| CC(C)c1ccc(OP(C)(=O)Nc2ccc(SC(F)(F)F)cc2)cc1 (centres undefined) | inactive: -1.66% |
| O=C(OC1CN2CCC1CC2)c1ccc([N+](=O)[O-])cc1 (centres undefined) | inactive: 0.87% |
| O=C(OCCN1CCN(CCOCc2ccccc2)CC1)C(O)(c1ccccc1)c1ccccc1 | inactive: -0.68% |
| COc1ccc2c(c1O)-c1c(O)c(OC)cc3c1[C@H](C2)[N+](C)(C)CC3.O=[N+]([O-])c1cc([N+](=O)[O-])c([O-])c([N+](=O)[O-])c1[O-] | inactive: 3.5% |
| CP(=O)(Nc1ccc(SC(F)(F)F)cc1)Oc1ccc(F)cc1 (centres undefined) | inactive: -1.22% |
| CCOP(C)(=S)SCC(=O)NC(C)(CC)C(=O)O (centres undefined) | inactive: 0.64% |
| CCOP(=O)(CC)OCC | inactive: 1.37% |
| CP(=O)(Nc1ccc2c(c1)OCCO2)Oc1ccccc1 (centres undefined) | inactive: 0.51% |
| Cc1ccccc1NP(C)(=O)Nc1ccccc1C | inactive: -0.79% |
| O=[N+]([O-])c1cc([N+](=O)[O-])c(C(F)(F)F)c([N+](=O)[O-])c1O | inactive: 2.27% |
| COc1ccc(OP(C)(=O)Nc2cccc(Br)c2)cc1 (centres undefined) | inactive: 0.74% |
| CN(C)CCOC(=O)C(O)(c1ccccc1)C1CCCCC1 (centres undefined) | inactive: -0.17% |
| COc1ccc(NP(C)(=O)Oc2ccccc2OC)cc1 (centres undefined) | inactive: -0.97% |
| O=[N+]([O-])c1ccc(OP2(=O)COCCO2)cc1 (centres undefined) | inactive: -0.39% |
| Cc1cc(-c2cccc3ccccc23)c(C)cn1.O=[N+]([O-])c1cc([N+](=O)[O-])c(O)c([N+](=O)[O-])c1 | inactive: 1.99% |
| O=[N+]([O-])c1cc([N+](=O)[O-])c(NCC2CCS(=O)(=O)C2)c([N+](=O)[O-])c1 (centres undefined) | active: 5.02% |
| Cc1c(C(c2ccc3c(c2)OCO3)c2c(C)n(C)n(-c3ccccc3)c2=O)c(=O)n(-c2ccccc2)n1C.O=[N+]([O-])c1cc([N+](=O)[O-])c(O)c([N+](=O)[O-])c1 | inactive: 0.89% |
| Nc1ccc2c(ccc3cccnc32)n1.O=[N+]([O-])c1cc([N+](=O)[O-])c(O)c([N+](=O)[O-])c1 | inactive: 3.93% |
| CCOC(=O)c1ccc(NP(C)(=O)Oc2ccc(Cl)cc2)cc1 (centres undefined) | inactive: -0.23% |
| CP(=O)(OC12CC3CC(CC(C3)C1)C2)OC12CC3CC(CC(C3)C1)C2 | inactive: 2.21% |
| CCN(CC)CC(O)COC(=O)C(O)(c1ccccc1)C1CCCCC1 (centres undefined) | inactive: -0.58% |

| SMILES | inhibition |
| --- | --- |
| COc1ccc(OP(C)(=O)Nc2ccc(Br)cc2)cc1 (centres undefined) | inactive: -0.22% |
| COc1ccccc1OP(C)(=O)Nc1c(C)n(C)n(-c2ccccc2)c1=O (centres undefined) | inactive: 0.32% |
| O=C(OCCCN1CCCC1)C(O)(c1ccccc1)C1CCCCC1 (centres undefined) | inactive: 1.57% |
| CP(=O)(Oc1ccccc1)N1CCOC1=O (centres undefined) | inactive: -0.05% |
| CCc1ccc(OP(C)(=O)Nc2cccnc2)cc1 (centres undefined) | inactive: 0.86% |
| CC(C)(C)c1ccc(OP(C)(=O)O)cc1 | inactive: 0.77% |
| COc1ccccc1OP(C)(=O)Nc1ccccc1Br (centres undefined) | inactive: -1.35% |
| CP(=O)(Nc1ccc(Cl)cc1)Oc1ccc(F)cc1 (centres undefined) | inactive: -0.31% |
| CN(C)C(=O)c1c([N+](=O)[O-])cc([N+](=O)[O-])cc1[N+](=O)[O-] | inactive: 1.34% |
| COc1ccccc1OP(C)(=O)Nc1ccc(Br)cc1 (centres undefined) | inactive: -0.7% |
| COc1ccc(OP(C)(=O)Nc2ccccn2)cc1 (centres undefined) | inactive: -0.12% |
| CN(C)CCOC(=O)C(O)(c1ccccc1)C1CCCC1 (centres undefined) | inactive: 0.37% |
| O=[N+]([O-])c1cc([N+](=O)[O-])c(Nc2ccccn2)c([N+](=O)[O-])c1 | inactive: 2% |
| Cc1c(NP(C)(=O)Oc2ccc(C(C)C)cc2)c(=O)n(-c2ccccc2)n1C (centres undefined) | inactive: -0.63% |
| CP(=O)(Nc1ccccn1)Oc1ccccc1 (centres undefined) | inactive: -0.26% |
| COc1ccccc1OP(C)(=O)Nc1ccc(C)cc1C (centres undefined) | inactive: -0.58% |
| CCc1ccc(OP(C)(=O)O)cc1 | inactive: -0.33% |
| O=C1C(O)=C([N+](=O)[O-])C(=O)C(O)=C1[N+](=O)[O-] | inactive: 2.01% |
| Cc1cc(C)cc(OP(C)(=O)Nc2cccc(C(F)(F)F)c2)c1 (centres undefined) | inactive: 1.14% |
| COc1ccccc1OP(C)(=O)Nc1ccc(C)c(C)c1 (centres undefined) | inactive: 0.46% |
| COc1ccc(OP(C)(=O)Nc2ccccc2Br)cc1 (centres undefined) | inactive: 0.49% |
| CP(=O)(OCCOc1ccccc1)OCCOc1ccccc1 | inactive: 2.03% |
| CP(=O)(Nc1ccc(Cl)cc1Cl)Oc1ccccc1 (centres undefined) | inactive: 0.89% |
| CCCCCCCCCCCCCCCC1C[N+](C)(C)CCOP(C)(=O)O1 (centres undefined) | inactive: -1.51% |
